These are literature values, as cited in publication PMC6424904, “The Utility of Efavirenz-based Prophylaxis Against HIV Infection. A Systems Pharmacological Analysis” (Frontiers in Pharmacology, 2019).

The conditions of this data set: ref [6–8]; cited from earlier work.

Take `O=C1Nc2ccc(Cl)cc2[C@@](C#CC2CC2)(C(F)(F)F)O1` [efavirenz]: the “ratio between total EFV concentrations in semen and plasma, reported values” is given as 3-9%.
